# Assay results published in US20130150294A1.
# Target: Src of LLC-PK1 cells (endogenous) (pig) (UniProt K7GM45)
# Experiment: pixel analysis of double immunostaining, confocal microscopy, LLC-PK1 cells
substance,measurement,value
Na+/K+-ATPase α1 of LLC-PK1 cells (endogenous) (from UniProt P05024 1-1021) (enzyme),percent of Na+/K+-ATPase in the plasma membrane colocalized with Src,25.2%
